Source: PMC6013488, “A widely-applicable high-throughput cellular thermal shift assay (CETSA) using split Nano Luciferase” (Scientific Reports, 2018)

Chains of the proteins cited; added tags and fusions are not shown.
UniProt P50750, whole entry: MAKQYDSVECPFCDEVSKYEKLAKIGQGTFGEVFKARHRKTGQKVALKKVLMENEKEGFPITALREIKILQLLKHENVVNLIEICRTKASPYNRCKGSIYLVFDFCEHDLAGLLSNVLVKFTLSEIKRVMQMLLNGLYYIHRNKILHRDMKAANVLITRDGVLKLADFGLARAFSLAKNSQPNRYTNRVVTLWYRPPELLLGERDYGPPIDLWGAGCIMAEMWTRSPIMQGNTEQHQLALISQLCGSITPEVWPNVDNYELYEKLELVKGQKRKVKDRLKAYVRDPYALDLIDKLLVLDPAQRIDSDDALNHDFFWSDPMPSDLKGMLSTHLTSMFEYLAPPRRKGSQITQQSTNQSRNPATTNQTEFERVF

Target: T1, CDK9/cyclin K (Homo sapiens, UniProt P50750)
T1 construct: purchased Invitrogen (ThermoFisher) PV4335
Experiment: TR-FRET Lanthascreen Eu Kinase Binding assay

- Curve Class (classifies curves by quality of fit, efficacy and number of asymptotes): 5
- Efficacy (difference between highest and lowest activity across concentration range, in %): -38.0
- Max Resp (in %): -96.7
Structure (SMILES): CN1CC[C@H](c2c(O)cc(O)c3c(=O)cc(-c4ccccc4Cl)oc23)[C@H](O)C1 [Flavopiridol]
